The values that follow are results of earlier work, collected in paper PMC4240550 (PLoS ONE, 2014).

Chains of the proteins cited; added tags and fusions are not shown.
UniProt Q9HYN5, entry or part of it: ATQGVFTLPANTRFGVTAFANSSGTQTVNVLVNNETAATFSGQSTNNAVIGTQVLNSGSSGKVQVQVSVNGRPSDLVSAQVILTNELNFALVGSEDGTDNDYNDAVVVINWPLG

For this data set, the target named is LecB (Pseudomonas aeruginosa, UniProt Q9HYN5). Particulars: ITC; cited from earlier work. (ITC needs no label: the signal is the heat of the interaction.)

Molecules are shown by their SMILES.

`CO[C@H]1O[C@H](CO)[C@@H](O)[C@H](O)[C@@H]1O` [compound 2, methyl α-D-mannoside]: the ΔG is -5.66 kcal/mol.
